Test results from patent US11981617B2, “Ketamine pamoate and use thereof” (Alar Pharmaceuticals Inc., priority 2019, dated 2024).

Tested on: female Sprague Dawley (SD) rats
Assay: 3-month repeat-dose toxicology study
Details: high dose subchronic treatment for 12 weeks

Substance: R, S-ketamine pamoate [KEP]
- pathological bladder and brain changes: did not cause pathological bladder and brain changes
